Laboratory results taken from patent publication US20240360082A1, “SUBSTITUTED PYRIDONE COMPOUNDS USEFUL TO TREAT ORTH[…]” (priority 2021, published 2024).
Where two headings read alike, the source gives them in different places.

Tested on: influenza virus (multiple flu strains)
Test: organism not typed
Settings: MDCK
[1] = read-out: NA Alaska H3N2, NA assay, Alaska H3N2 strain
[2] = read-out: NA CAL H1N1, NA assay, CAL H1N1 strain

Compound	IC50 [1] [nM]	IC50 [2] [nM]
CC1COCCN1Cc1ccc(-c2cc(C(N)=O)c(=O)[nH]c2C(F)(F)F)cc1 (stereo not drawn) [Example 27, 5-(4-((3-methylmorpholino)methyl)phenyl)-2-oxo-6-(trifluoromethyl)-1,2-dihydropyridine-3-carboxamide]	100 to 1000	1000 to 5000
CC1CN(Cc2ccc(-c3cc(C(N)=O)c(=O)[nH]c3C(F)(F)F)cc2)CCO1 (stereo not drawn) [Example 29, 5-(4-((2-methylmorpholino)methyl)phenyl)-2-oxo-6-(trifluoromethyl)-1,2-dihydropyridine-3-carboxamide]	100 to 1000	1000 to 5000
NC(=O)c1cc(-c2ccc(CN3CCOCC34CC4)cc2)c(C(F)(F)F)[nH]c1=O [Example 30, 5-(4-((7-oxa-4-azaspiro[2.5]octan-4-yl)methyl)phenyl)-2-oxo-6-(trifluoromethyl)-1,2-dihydropyridine-3-carboxamide]	100 to 1000	100 to 1000
NC(=O)c1cc(-c2ccc(CN3CCOCC3c3cccnc3)cc2)c(C(F)(F)F)[nH]c1=O (stereo not drawn) [Example 32, 2-oxo-5-(4-((3-(pyridin-3-yl)morpholino)methyl)phenyl)-6-(trifluoromethyl)-1,2-dihydropyridine-3-carboxamide]	100 to 1000	100 to 1000
NC(=O)c1cc(-c2ccc(CN3CCOCC3)c(F)c2)c(C(F)(F)F)[nH]c1=O [Example 36, 5-(3-fluoro-4-(morpholinomethyl)phenyl)-2-oxo-6-(trifluoromethyl)-1,2-dihydropyridine-3-carboxamide]	1000 to 5000	5000 to 10000
CC1(C)CN(Cc2ccc(-c3cc(C(N)=O)c(=O)[nH]c3C(F)(F)F)cc2)CCO1 [Example 39, 5-(4-((2,2-dimethylmorpholino)methyl)phenyl)-2-oxo-6-(trifluoromethyl)-1,2-dihydropyridine-3-carboxamide]	100 to 1000	100 to 1000
NC(=O)c1cc(-c2ccc(CN3CCOCC3)cc2F)c(C(F)(F)F)[nH]c1=O [Example 42, 5-(2-fluoro-4-(morpholinomethyl)phenyl)-2-oxo-6-(trifluoromethyl)-1,2-dihydropyridine-3-carboxamide]	1000 to 5000	10000 to 25000
Cc1cc(-c2cc(C(N)=O)c(=O)[nH]c2C(F)(F)F)ccc1CN1CCOCC1 [Example 43, 5-(3-methyl-4-(morpholinomethyl)phenyl)-2-oxo-6-(trifluoromethyl)-1,2-dihydropyridine-3-carboxamide]	1000 to 5000	10000 to 25000
NC(=O)c1cc(-c2ccc(C(c3cnco3)N3CCOCC3)cc2)c(C(F)(F)F)[nH]c1=O (stereo not drawn) [Example 48, 5-(4-(morpholino(oxazol-5-yl)methyl)phenyl)-2-oxo-6-(trifluoromethyl)-1,2-dihydropyridine-3-carboxamide]	5000 to 10000	10000 to 25000
NC(=O)c1cc(-c2ccc(CC3(O)CCOCC3)cc2)c(C(F)(F)F)[nH]c1=O [Example 50, 5-(4-((4-hydroxytetrahydro-2H-pyran-4-yl)methyl)phenyl)-2-oxo-6-(trifluoromethyl)-1,2-dihydropyridine-3-carboxamide]	100 to 1000	1000 to 5000
NC(=O)c1cc(-c2ccc(OCc3cccc([N+](=O)[O-])c3)cc2)c(C(F)(F)F)[nH]c1=O [Example 54, 5-(4-((3-nitrobenzyl)oxy)phenyl)-2-oxo-6-(trifluoromethyl)-1,2-dihydropyridine-3-carboxamide]	100 to 1000	100 to 1000
NC(=O)c1cc(-c2ccc(OCC3CCOCC3)cc2)c(C(F)(F)F)[nH]c1=O [Example 56, 2-oxo-5-(4-((tetrahydro-2H-pyran-4-yl)methoxy)phenyl)-6-(trifluoromethyl)-1,2-dihydropyridine-3-carboxamide]	100 to 1000	1000 to 5000
NC(=O)c1cc(-c2ccc(OCC3CCCCC3)cc2)c(C(F)(F)F)[nH]c1=O [Example 58, 5-(4-(cyclohexylmethoxy)phenyl)-2-oxo-6-(trifluoromethyl)-1,2-dihydropyridine-3-carboxamide]	5000 to 10000	1000 to 5000
CCCNc1cccc(COc2ccc(-c3cc(C(N)=O)c(=O)[nH]c3C(F)(F)F)cc2)c1 [Example 66, 2-oxo-5-(4-((3-(propylamino)benzyl)oxy)phenyl)-6-(trifluoromethyl)-1,2-dihydropyridine-3-carboxamide]	100 to 1000	100 to 1000
NC(=O)c1cc(-c2ccc(OCc3ccncc3)cc2)c(C(F)(F)F)[nH]c1=O [Example 70, 2-oxo-5-(4-(pyridin-4-ylmethoxy)phenyl)-6-(trifluoromethyl)-1,2-dihydropyridine-3-carboxamide]	100 to 1000	1000 to 5000
NC(=O)c1cc(-c2ccc(OCc3ccc4nonc4c3)cc2)c(C(F)(F)F)[nH]c1=O [Example 71, 5-(4-(benzo[c][1,2,5]oxadiazol-5-ylmethoxy)phenyl)-2-oxo-6-(trifluoromethyl)-1,2-dihydropyridine-3-carboxamide]	100 to 1000	10 to 100
NC(=O)c1cc(-c2ccc(OCc3cccnc3)cc2)c(C(F)(F)F)[nH]c1=O [Example 72, 2-oxo-5-(4-(pyridin-3-ylmethoxy)phenyl)-6-(trifluoromethyl)-1,2-dihydropyridine-3-carboxamide]	10 to 100	100 to 1000
NC(=O)c1cc(-c2ccc(OCc3ccccn3)cc2)c(C(F)(F)F)[nH]c1=O [Example 73, 2-oxo-5-(4-(pyridin-2-ylmethoxy)phenyl)-6-(trifluoromethyl)-1,2-dihydropyridine-3-carboxamide]	100 to 1000	100 to 1000
NC(=O)c1cc(-c2ccc(OCc3cccc4nonc34)cc2)c(C(F)(F)F)[nH]c1=O [Example 74, 5-(4-(benzo[c][1,2,5]oxadiazol-4-ylmethoxy)phenyl)-2-oxo-6-(trifluoromethyl)-1,2-dihydropyridine-3-carboxamide]	100 to 1000	100 to 1000
NC(=O)c1cc(-c2ccc(OCc3ccccc3[N+](=O)[O-])cc2)c(C(F)(F)F)[nH]c1=O [Example 76, 5-(4-((2-nitrobenzyl)oxy)phenyl)-2-oxo-6-(trifluoromethyl)-1,2-dihydropyridine-3-carboxamide]	100 to 1000	100 to 1000
N#Cc1ccc(COc2ccc(-c3cc(C(N)=O)c(=O)[nH]c3C(F)(F)F)cc2)cc1 [Example 77, 5-(4-((4-cyanobenzyl)oxy)phenyl)-2-oxo-6-(trifluoromethyl)-1,2-dihydropyridine-3-carboxamide]	100 to 1000	5000 to 10000
N#Cc1cccc(COc2ccc(-c3cc(C(N)=O)c(=O)[nH]c3C(F)(F)F)cc2)c1 [Example 78, 5-(4-((3-cyanobenzyl)oxy)phenyl)-2-oxo-6-(trifluoromethyl)-1,2-dihydropyridine-3-carboxamide]	100 to 1000	10 to 100
NC(=O)c1cc(-c2ccc(OCc3cccc(C(F)(F)F)c3)cc2)c(C(F)(F)F)[nH]c1=O [Example 79, 2-oxo-6-(trifluoromethyl)-5-(4-((3-(trifluoromethyl)benzyl)oxy)phenyl)-1,2-dihydropyridine-3-carboxamide]	100 to 1000	100 to 1000
NC(=O)c1cc(-c2ccc(OCc3cncnc3)cc2)c(C(F)(F)F)[nH]c1=O [Example 82, 2-oxo-5-(4-(pyrimidin-5-ylmethoxy)phenyl)-6-(trifluoromethyl)-1,2-dihydropyridine-3-carboxamide]	100 to 1000	100 to 1000
